Source: article PMC3655264, “A Large-Scale Conformational Change Couples Membrane Recruitment to Cargo Binding in the AP2 Clathrin Adaptor Complex” (Cell, 2010)

Biological target: fluorescein-labeled TGN38 YxxΦ peptide (ASDYQRL)
Test: fluorescence polarisation; equilibrium anisotropy titration, without heparin; 20 nM fluorescein peptide, increasing protein; 21°C; 10 mM Tris pH 8.7, 250 mM NaCl (AP2 core, short core) or 10 mM HEPES pH 7.4, 500 mM NaCl (C-μ2); single-site model with linear nonspecific term

isolated C-terminal domain of μ2 (C-μ2) (from UniProt P84092 1-435) (domain or fragment)
Kd: 1900 nM
